Consider 39 molecules from PubChem BioAssay AID686971 (National Center for Advancing Translational Sciences (NCATS), 2013).

The list shows a part of the results, in another mix than the full data. Inconclusive results are not listed. Entries that show only a call come without a potency. Activity calls are given as the source filed them. The call rests on the fitted dose curve; in most records, active means well fitted cell-killing curve with a large enough effect; inconclusive means small, poorly fitted or top-dose-only effect, or effect the other way, or another doubt; inactive means no such curve, though single readings can be large or run the other way.
Potency means the concentration at half of the fitted maximal effect.

The assay can be described thus: qHTS for induction of synthetic lethality in tumor cells producing 2HG: qHTS for the HT-1080-IDH1KD cell line. The following applies: HT-1080 IDH1 knockdown viability, ATP luminescence, 48 h; series mostly up to 46.1 µM.
With `Cc1ccc(NP(=O)(Oc2ccccc2)Oc2ccccc2)nc1`, the Potency result was “inactive”.

Regarding `CCc1nc2c(n1)c1c(non1O)c1c2no[n+]1[O-]`, the Potency is active: 20.6 µM.

In the case of `O=[N+]([O-])c1cccc2n[nH]nc12`, the Potency entry was “inactive”.

In the case of `CC(=O)N1C2C3N(C(C)=O)C1C1N(C(C)=O)C(C(N1C(C)=O)N3C(C)=O)N2C(C)=O`, the Potency entry is “inactive”.

For the molecule `CCN(/C(=N/P(=O)(N1CCOCC1)N1CCOCC1)N1CCOCC1)c1ccc(OC)cc1`, the Potency entry is “inactive”.

As to `Nc1ccc([As](=O)(O)c2ccc(N)cc2)cc1`, the Potency result was “inactive”.

Consider `c1cc(-c2nn[nH]n2)ccc1-c1nn[nH]n1`, for which the Potency entry is “inactive”.

For the molecule `CC1CCN(C(=O)Oc2c(Cl)cc(Cl)c3cccnc23)CC1`, the Potency result was “inactive”.

As to `CC(C)=N/N=C(\N)N[N+](=O)[O-]`, the Potency entry is “inactive”.

For `CC(C)c1nc(Nc2ccccc2)n(P(=O)(N(C)C)N(C)C)n1`, the Potency result was “inactive”.

Turning to `CN(C)C(=O)OCCc1n(C)cc[n+]1C`, the Potency entry is “inactive”.

As for `O=P1(N(CCCl)CCCl)OCCCS1` (centres undefined), the Potency result is “inactive”.

Turning to `O=C(Nc1cc([As](=O)(O)O)ccc1O)c1ccccc1`, the Potency entry was “inactive”.

`O=[N+]([O-])c1ncn(CCn2ncnc2[N+](=O)[O-])n1`: the Potency entry is “inactive”.

As for `CC(C)(C)C(=O)NC(Sc1ccncn1)C(Cl)(Cl)Cl` (centres undefined), the Potency entry is “inactive”.

Turning to `O=C(O)CNc1ccc([As](=O)(O)O)cc1`, the Potency entry was “inactive”.

Regarding `O=[N+]([O-])c1cccc(NC2=NCC(CBr)S2)c1` (centres undefined), the Potency entry was “inactive”.

Turning to `COC(=O)C1(C)COP(=O)(Nc2ccccc2)OC1` (centres undefined), the Potency result is “inactive”.

As to `CN(C)P(=O)(N(C)C)n1c(Nc2ccccc2)nnc1-c1ccccc1`, the Potency result is “inactive”.

Take `O=C(O)c1ccccc1[As](=O)(O)O`: the Potency result was “inactive”.

Turning to `CC(=O)Nc1ccc([As](=O)(O)O)cc1`, the Potency entry is “inactive”.

Turning to `CCCC1OP(N)(=O)OCC1CC` (centres undefined), the Potency result is “inactive”.

For `CCOP(=O)(Nc1ccccc1)OCC`, the Potency result is “inactive”.

Take `Cc1cc(SC(NC(=O)c2ccc(F)cc2)C(Cl)(Cl)Cl)ncn1` (centres undefined): the Potency entry is “inactive”.

With `Cc1ccc(NP(=O)(Oc2ccccc2F)Oc2ccccc2F)nc1`, the Potency entry was “inactive”.

Consider `CN(C(=O)Cc1ccc(Cl)c(Cl)c1)[C@H]1CCCC[C@@H]1N1CCCC1`, for which the Potency result was “inactive”.

Consider `Nc1cccc2ccc([As](=O)(O)O)cc12`, for which the Potency result is “inactive”.

As to `CCN(N=Nc1nonc1N)c1nonc1N`, the Potency result was “inactive”.

As for `Cc1ccc(N/C(=N/P(=O)(N2CCOCC2)N2CCOCC2)N2CCOCC2)cc1`, the Potency result is “inactive”.

Consider `NC(=O)c1cc([N+](=O)[O-])cc([N+](=O)[O-])c1N`, for which the Potency entry is “inactive”.

On to `Clc1ccc(Cl)c(NC2=NCC(CBr)S2)c1` (centres undefined), for which the Potency entry was “inactive”.

In the case of `CN1CCCC(OC(=O)C(c2ccccc2)c2ccccc2)C1` (centres undefined), the Potency entry is “inactive”.

For `COc1ccccc1OP(=O)(Nc1ccc(C)cn1)Oc1ccccc1OC`, the Potency entry is “inactive”.

With `Cc1ccc(OP(=O)(Nc2nccs2)Oc2ccc(C)cc2)cc1`, the Potency entry is “inactive”.

As to `Oc1ccccc1CNc1ccccn1`, the Potency entry is “inactive”.

Consider `O=C(NC(Sc1ccncn1)C(Cl)(Cl)Cl)c1ccccc1` (centres undefined), for which the Potency result was “inactive”.

`CC(C)CC(=O)NC(Sc1ccc(Cl)cc1)C(Cl)(Cl)Cl` (centres undefined): the activity, negative = toxicity is inactive: 4.52% [at 9.24 µM].

As to `Nc1cc(N)c2nonc2c1[N+](=O)[O-]`, the Potency result is “inactive”.

Take `O=[N+]([O-])C1C(O)C(O)C([N+](=O)[O-])C(O)C1O` (centres undefined): the Potency entry is “inactive”.
